Data from patent publication US20190269784A1, “Selective Inhibitors of the Polo-Like Kinase 1 Polo-Box Domain” (UNIVERSITY OF SOUTH CAROLINA, priority 2018, published 2019).
Square brackets hold non-standard residues; d marks the D form. Peptide text beside a SMILES is read from it. pT = C[C@@H](OP(=O)(O)O)[C@H](N)C(=O)O

By UniProt entry, the sequences of proteins in these tests, tags left out. Residues count along the entry.
UniProt P53350, 367-603 limits assumed: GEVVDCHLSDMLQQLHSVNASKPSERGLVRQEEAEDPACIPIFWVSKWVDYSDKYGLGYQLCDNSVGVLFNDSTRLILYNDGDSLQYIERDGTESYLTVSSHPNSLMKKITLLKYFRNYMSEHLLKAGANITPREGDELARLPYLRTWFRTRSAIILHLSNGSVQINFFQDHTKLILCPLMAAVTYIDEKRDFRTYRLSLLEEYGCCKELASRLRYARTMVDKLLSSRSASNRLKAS

Target: PLK1 PBD (Homo sapiens, UniProt P53350)
Assay: Fluorescence polarization competitive binding assay, PLK1 PBD
Description: According to the assay, binding of a fluorescent tracer peptide to a protein increased polarization of the emitted fluorescence. […] The ability of test molecules to bind to the PBD was quantitated by a reduction in mP values that occurred as the tracer was displaced from the PBD, and plotted to calculate as an IC50 value.
The affinities of the peptides for PLK1 and PLK3 were measured by plotting the loss of polarization against increasing concentration of competitor peptide through use of an optimized assay and selectivity determination.

CC(=O)N1CCC[C@H]1C(=O)N[C@@H](CC(C)C)C(=O)N[C@@H](Cc1c[nH]cn1)C(=O)N[C@@H](CO)C(=O)N[C@H](C(=O)N[C@@H](C)C(=O)O)[C@@H](C)OP(=O)(O)O [SEQ ID NO: 6, Ac-PLHS[pT]A] (Ac-PLHS[pT]A-OH; C-terminus assumed)
fold reduction of PLK1 PBD binding relative to parent compound: 7 fold | Selectivity Index ((IC50 PLK3 PBD/IC50 PLK1 PBD)×5, PLK1 over PLK3): >6500
